# According to patent US6479067B2, “Methods for treating ovarian cancer, poly (phosphoester) compositions, and biodegradable articles for same” (Guilford Pharmaceuticals, Inc., priority 1999, dated 2002):
# Read-outs that look alike come from different tables or passages of the source.
# Tested on: melanoma cell line B16/F10
# Settings: formulation injected on Day 3
substance,measurement,setting,value
"Bolus IL-2: interleukin-2 (Chiron) dissolved in 50 μl of isotonic solution, 0.8 × 10^6 IU",Tumor Volume (mm^3 ± SEM) After Tumor Injection,28 days,1946 ± 505.6 mm^3
same,Tumor Volume (mm^3 ± SEM) After Tumor Injection,42 days,3282 ± 1403.3 mm^3
